Patent US8575203B2, “Chemical compounds” (Boehringer Ingelheim International GmbH, priority 2010, dated 2013)

Protein sequences, listed by entry. Tags and fused reporters are not part of them. Residues count along the entry.
UniProt O15530, 52-556: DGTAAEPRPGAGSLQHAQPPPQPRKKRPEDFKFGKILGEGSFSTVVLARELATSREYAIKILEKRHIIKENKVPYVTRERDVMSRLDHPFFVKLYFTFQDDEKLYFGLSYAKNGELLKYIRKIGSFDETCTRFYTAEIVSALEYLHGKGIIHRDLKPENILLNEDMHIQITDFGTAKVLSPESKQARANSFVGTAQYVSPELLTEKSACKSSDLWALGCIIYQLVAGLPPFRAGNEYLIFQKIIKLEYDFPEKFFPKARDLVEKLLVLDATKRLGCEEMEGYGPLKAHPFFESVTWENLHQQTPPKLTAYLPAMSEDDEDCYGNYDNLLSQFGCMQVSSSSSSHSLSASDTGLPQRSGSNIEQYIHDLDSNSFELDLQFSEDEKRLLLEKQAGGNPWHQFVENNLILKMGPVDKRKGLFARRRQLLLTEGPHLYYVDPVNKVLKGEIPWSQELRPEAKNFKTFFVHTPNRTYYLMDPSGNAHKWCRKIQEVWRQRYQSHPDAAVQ

Molecular target: Recombinant human PDK1 enzyme (aa 52-556) (Homo sapiens (Human), UniProt O15530)
Assay: PDK1 kinase assay
Type: biochemical
Experimental: The activity of the compounds according to the invention on the kinase PDK1 which inhibits the signal transduction pathway is determined in an in vitro kinase assay with recombinantly prepared protein:
Recombinant human PDK1 enzyme (aa 52-556) linked at its N-terminal end to His6 is isolated from baculovirus-infected insect cells. Purified enzyme may be obtained for example from the University of Dundee, Scotland. […]
The reaction is started by adding the ATP solution and the mixture is incubated for 90 min at RT. […] Then the plate is stuck down with sealing tape, 25 μL/well of scintillation solution (Microscint 0; Perkin Elmer; No. 6013611) are added and the amount of P33 precipitated is measured using the Wallac Betacounter. The measured data are evaluated using Graphpad Prism software.

O=C(NCC#Cc1ccc2ncc(N[C@H]3CC[C@H](N4CCN(CC5CC5)CC4)CC3)nc2c1)c1cccn([C@H](CO)c2ccccc2)c1=O [I-65] showed an IC50 of 7 nM.
